# Test results from ChEMBL document CHEMBL5053542, “C-terminal modified Enkephalin-like tetrapeptides with enhanced affinities at the kappa opioid receptor and monoamine transporters” (Bioorg Med Chem, 2021).
# By UniProt entry, the sequences of proteins in these tests, tags left out.
# UniProt P23975, whole entry: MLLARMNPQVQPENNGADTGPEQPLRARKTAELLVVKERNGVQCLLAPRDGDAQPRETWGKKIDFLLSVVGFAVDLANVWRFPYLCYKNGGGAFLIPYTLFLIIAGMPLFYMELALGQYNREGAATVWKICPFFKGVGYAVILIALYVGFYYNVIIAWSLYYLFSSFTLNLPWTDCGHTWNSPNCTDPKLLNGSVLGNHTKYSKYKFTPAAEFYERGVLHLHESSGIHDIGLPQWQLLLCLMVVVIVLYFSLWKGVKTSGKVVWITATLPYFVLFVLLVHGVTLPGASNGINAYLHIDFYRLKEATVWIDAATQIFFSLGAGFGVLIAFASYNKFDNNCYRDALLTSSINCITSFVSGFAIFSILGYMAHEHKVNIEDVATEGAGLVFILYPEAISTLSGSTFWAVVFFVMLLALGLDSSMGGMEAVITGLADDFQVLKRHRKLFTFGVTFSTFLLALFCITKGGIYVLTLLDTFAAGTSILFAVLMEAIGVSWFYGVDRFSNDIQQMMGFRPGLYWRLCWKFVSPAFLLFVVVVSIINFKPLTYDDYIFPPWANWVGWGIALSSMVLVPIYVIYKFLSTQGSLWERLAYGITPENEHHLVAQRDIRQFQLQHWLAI
# Some of these compounds have results that are not shown, active ones among them.
# Biological target: Sodium-dependent noradrenaline transporter (Homo sapiens) (UniProt P23975)
# Assay: Displacement of [3H]-Nisoxetine from human NET expressed in HEK cell membrane at 10 uM by radioligand binding assay relative to control
smiles,measurement,value
CCCC[C@@H](NC(=O)[C@@H](N)Cc1ccc(O)cc1)C(=O)NCC(=O)N[C@@H](Cc1ccc(F)cc1)C(=O)N1CCC(N(C(=O)CC)c2ccc(Cl)c(Cl)c2)CC1,inhibition,< 50%
